From paper PMC2670829 (BMC Pharmacology, 2009)

Conditions: 24–72 hours after a single 8 mg/kg dose of rapamycin

**Q.** With `CO[C@H]1C[C@@H]2CC[C@@H](C)[C@@](O)(O2)C(=O)C(=O)N2CCCC[C@H]2C(=O)O[C@H]([C@H](C)C[C@@H]2CC[C@@H](O)[C@H](OC)C2)CC(=O)[C@H](C)/C=C(\C)[C@@H](O)[C@@H](OC)C(=O)[C@H](C)C[C@H](C)/C=C/C=C/C=C/1C` [Rapamycin] as the compound, how does the Average rapamycin levels read?
**A.** The Average rapamycin levels was 12 to 40 ng/mL.
